In general, IC50 refers to the concentration needed to halve the response being measured.

Amino acid sequences for entries named in this document (tags omitted). Residues count along the entry.
UniProt Q9Y251, 36-109 limits assumed: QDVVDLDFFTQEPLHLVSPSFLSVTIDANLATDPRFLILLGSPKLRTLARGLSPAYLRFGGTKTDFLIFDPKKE
UniProt Q9Y251, 158-543 limits assumed: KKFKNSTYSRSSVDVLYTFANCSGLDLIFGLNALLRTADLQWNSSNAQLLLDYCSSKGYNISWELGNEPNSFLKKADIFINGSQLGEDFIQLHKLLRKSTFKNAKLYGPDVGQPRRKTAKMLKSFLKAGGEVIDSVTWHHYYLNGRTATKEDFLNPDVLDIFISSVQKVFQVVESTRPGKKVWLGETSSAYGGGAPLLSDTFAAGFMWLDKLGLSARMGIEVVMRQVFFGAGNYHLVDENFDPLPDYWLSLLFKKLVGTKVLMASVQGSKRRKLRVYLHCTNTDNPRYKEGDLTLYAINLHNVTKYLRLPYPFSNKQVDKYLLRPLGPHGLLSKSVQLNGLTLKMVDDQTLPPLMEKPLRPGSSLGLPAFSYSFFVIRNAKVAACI

The text below walks through data of US7326727B2, “Furanthiazole derivatives as heparanase inhibitors” (Oxford Glycosciences (UK) Ltd., priority 2002, dated 2008).

This assay concerns the target human heparanase (Homo sapiens, UniProt Q9Y251). Briefly: Heparanase assay (bFGF binding to heparan sulphate, 96-well plate). The following applies: read-out: Inhibition of Heparanase (IC50), 2 h at 37° C., pH 5.5.

Regarding `O=C(O)Cc1nc(-c2ccc(-c3ccc(NC(=O)C4=COc5ccc(Cl)cc5C4)cc3Cl)o2)cs1`, the IC50 stood at 1000 nM.
